The values that follow are results of earlier work, collected in patent US8022075B2, “Diagnostic and remedy for disease caused by amyloid aggregation and/or deposition” (Fujifilm Ri Pharma Co., Ltd., priority 2005, dated 2011).

The conditions of the data set: standard substances of liposolubility; values reported in the literature; cited from earlier work.

As for `c1ccc2ccccc2c1` [Naphtalene], the LogD7.4 was 3.37.
